# Yeast mating assay 2: variants of the scFv Ab-91

The measurements come from Engelhart et al. 2022 (doi:10.1038/s41597-022-01779-4) through the FLAb antibody collection.

Target: peptide PDVDLGDISGINAS, taken from heptad repeat 2 (HR2) of SARS-CoV-2 spike.

The variants keep the light chain, the linker and the frameworks of Ab-91 (scFv order VL, a 15-residue (Gly4Ser)3 linker, VH).
VL: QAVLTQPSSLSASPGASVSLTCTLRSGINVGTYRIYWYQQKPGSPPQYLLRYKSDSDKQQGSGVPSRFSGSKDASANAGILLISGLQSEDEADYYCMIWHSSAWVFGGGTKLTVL
VH: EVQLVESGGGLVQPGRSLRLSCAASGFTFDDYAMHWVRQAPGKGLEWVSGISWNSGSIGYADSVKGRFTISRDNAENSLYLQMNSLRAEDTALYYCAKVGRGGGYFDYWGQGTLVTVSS

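The starting antibody came from a phage panning campaign against this peptide. AAYL51 was designed without a model: most single CDR substitutions and a random sample of double and triple ones. AlphaSeq pools MATa yeast showing the antibodies with MATalpha yeast showing the peptide. The frequency of each diploid, read from paired DNA barcodes, reflects how well the two displayed proteins bind. Read counts were normalised to the haploid input and turned into Kd by a linear fit to BCL2-family pairs of known affinity, for each replicate. Each pool was mated in three replicate cultures.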

Variants are written as CDR1, CDR2 and CDR3 of the heavy chain (limits as in the source). Parent: GFTFDDYAMH, GISWNSGSIGYADSVK, VGRGGGYFDY. Scale: log10 of Kd in nM, estimated from mating counts; low values are strong binders. The mean shown is taken over the replicates in which the pair was detected. Where no diploid with the target was found in that replicate, the entry reads "nd": below detection, most likely a poor binder, though not proof of it.

Variant GFTFDDYAMH, GISWFSGSIGYAHWVK, VGRGGGYFDY gave nd, nd, nd (controls 0 of 9).
Variant GFYFDDYAMH, GICWNSGCIGYADSVK, VGRGGGYFDY gave 3.10, 3.14, 2.83 (mean 3.03; controls 2 of 9).
Variant GFTFDDYAMH, GISWNSGSIGYLDSVK, VGRGIGYFDY gave 1.16, 1.26, 0.43 (mean 0.95; controls 1 of 9).
Variant GFTFDDYAMH, GIGWNSGSIGYADYIK, VGRGGGYFDY gave 2.94, 3.02, 2.90 (mean 2.95; controls 5 of 9).
Variant GFTFDDYAMH, GISWNSGSIGYADSVK, VMRGLGYFDN gave 5.03, 5.03, 5.89 (mean 5.32; controls 7 of 9).
Variant AFTFDDYAMH, GISWNSGSIGYADSVK, VGFGWGYFDY gave nd, nd, nd (controls 2 of 9).
Variant GFTFDDYAMH, GISWNSGRIGYADKVK, VGRGCGYFDY gave nd, nd, nd (controls 1 of 9).
Variant GFTFDDYAMH, QIAWNSGSIGYADSVK, VGRGGGYFDY gave nd, nd, nd (controls 3 of 9).
Variant GFTFDGYAMH, GISTNSGSIGYADSVK, VGRGGGYFDY gave 1.38, 1.43, 0.61 (mean 1.14; controls 3 of 9).
Variant YFTFDDRAMH, GISWNSGSIGYADSVK, VGRGGGYFDY gave nd, 5.89, 4.45 (mean 5.17; controls 3 of 9).
Variant GFTFDDYAMH, GITWNSGVIGYADSVK, VGRMGGYFDY gave 3.22, nd, nd (controls 1 of 9).
Variant GFTPDDYAMH, IISWNSGSIGYLDSVK, VGRGGGYFDY gave nd, nd, nd (controls 2 of 9).
Variant GFTFDDYAMH, MISWNSGSIGYADSVK, IGRGGGYFDY gave 5.65, nd, 4.01 (mean 4.83; controls 3 of 9).
Variant GFTFDDYAMH, GISWNSGSIGSANGVK, VGRGGGYFDY gave nd, nd, nd (controls 1 of 9).
Variant GFTMDDYAMH, GISRNSGSIGYADSVK, VCRGGGYFDY gave 2.58, 2.54, 2.74 (mean 2.62; controls 1 of 9).
Variant YFTFDDYAGH, GISWNSGSIGYADSVK, VGAGGGYFDY gave 4.46, 4.67, nd (mean 4.57; controls 1 of 9).
Variant GFTFDDYIMH, GISWNSGSIGYADSVS, VMRGGGYFDY gave nd, nd, nd (controls 1 of 9).
Variant GFTFDDYAMH, GISWNSGSIGYADSVN, VGRCGGYFDY gave nd, 5.17, nd (controls 0 of 9).
Variant GFTFDDYAMH, PISWNSGSIGYADSFI, VGRGGGYFDY gave nd, 4.85, nd (controls 4 of 9).
Variant GFTFDDYAMH, GISDNSGEIGYADYVK, VGRGGGYFDY gave nd, nd, nd (controls 0 of 9).
Variant RFHFDDYAMH, GIRWNSGSIGYADSVK, VGRGGGYFDY gave nd, nd, nd (controls 0 of 9).
Variant GFTFDDYQMH, GISWNSGSIGYADSVK, SGRWGGYFDY gave nd, nd, nd (controls 0 of 9).
Variant GFTFDDYAMH, SISLNSGSIGYADSVK, VGRGTGYFDY gave nd, nd, nd (controls 1 of 9).
Variant GFTFDDYAMH, GDSWNSGSIHYADSCK, VGRGGGYFDY gave nd, nd, nd (controls 0 of 9).
Variant GFQFDDYAMH, GISWNSGSINYADSVK, VGRGGGHFDY gave 3.77, nd, nd (controls 4 of 9).
Variant GFTFDDYAMH, GASWNSGSIGADDSVK, VGRGGGYFDY gave nd, 4.81, nd (controls 4 of 9).
Variant GFTFDDYAMF, GISWNSGSIGYADSVK, KGRGGGRFDY gave nd, nd, nd (controls 1 of 9).
Variant GDTFDDYAMH, GISWKTGSIGYADSVK, VGRGGGYFDY gave 3.71, nd, nd (controls 4 of 9).
Variant GFTFDDYAMH, GISGMSGSIGYADSVK, VGRGGGYFMY gave 2.30, 2.68, 3.35 (mean 2.78; controls 0 of 9).
Variant GFIFDDYAMH, GISWNSGSIGYADSVK, VGRGGGFSDY gave 1.29, 1.53, 0.95 (mean 1.26; controls 0 of 9).
Variant GFTFDDYAMH, GISWPSGSVGYADSVK, VGTGGGYFDY gave nd, nd, nd (controls 0 of 9).
Variant GFTFDSYAMH, HISWNSGSIGYADSVK, VGPGGGYFDY gave nd, nd, nd (controls 0 of 9).
Variant EFTFKDYAMH, GISWNSGSIGYYDSVK, VGRGGGYFDY gave nd, nd, nd (controls 2 of 9).
Variant GFTFRDYAMH, GISWNSGSIGHADSVK, VGRWGGYFDY gave 1.14, 1.34, 0.91 (mean 1.13; controls 4 of 9).
Variant GFTFDDYAMH, GIRWNSGSIGYADSVK, VGRGGGYFDI gave nd, nd, nd (controls 4 of 9).
Variant GFTFDEFAMH, GISWNPGSIGYADSVK, VGRGGGYFDY gave 2.18, 1.49, 1.71 (mean 1.79; controls 0 of 9).
Variant GFTFDDYAMH, GISWASGSIGFMDSVK, VGRGGGYFDY gave 6.04, nd, nd (controls 4 of 9).
Variant AITFDDYAMH, GISWNSGSIGYADSVK, VGRGGYYFDY gave nd, nd, nd (controls 0 of 9).
Variant GFTFDDWAMH, GISWNSGTIGYADSVK, VGRGGGTFDY gave nd, nd, nd (controls 0 of 9).
Variant GFTFDDYAMH, GISWNSGSIGGADSVK, VGRGELYFDY gave nd, nd, nd (controls 1 of 9).
Variant GTTFDMYAMH, GISWNSGSIGYADSEK, VGRGGGYFDY gave nd, nd, nd (controls 1 of 9).
Variant GFTFDDYAMH, GISWNSGSIQYLDSVK, VNRGGGYFDY gave nd, nd, nd (controls 1 of 9).
Variant GFTFDFYAMH, GISWNSGSIGYADSMK, VTRGGGYFDY gave 5.36, 3.43, nd (mean 4.40; controls 0 of 9).
Variant GFTFDDYAMH, GIGWYSGSIGYADSVK, VGRGGGFFDY gave 4.23, 3.78, 3.55 (mean 3.86; controls 2 of 9).
Variant GFTFDDYAMH, GISTNSGSIGYADSVK, IGRGHGYFDY gave nd, nd, 5.10 (controls 1 of 9).
Variant GFTFDDYAMH, GISWWSGSLGYADSVK, VGRGGGYFRY gave nd, nd, nd (controls 2 of 9).
Variant GFTFDETAMH, GISWNSGSIGYADSVK, VGRGGGLFDY gave 3.91, nd, nd (controls 1 of 9).
Variant PFTFDDYAMH, GISWNSGSIGYADSVP, VGRGGGYFDY gave 4.23, nd, 4.86 (mean 4.55; controls 5 of 9).
Variant GFTFDDYAMH, GRSWNSGSIGYADSVK, HGRGGGYFKY gave nd, nd, nd (controls 0 of 9).
Variant GFTFDDYAMH, GISWNSGSIGYQDSVK, VGRGLGVFDY gave 1.13, 1.02, 1.29 (mean 1.15; controls 0 of 9).
Variant GFTFDDEAMH, GISWNSGSYGYADSVK, VGRGGGKFDY gave 3.63, nd, nd (controls 1 of 9).

The 5 strongest on average among those seen in every replicate, once more:

{"CDR-H1": "GFTFDDYAMH", "CDR-H2": "GISWNSGSIGYLDSVK", "CDR-H3": "VGRGIGYFDY", "log10 Kd, replicates": "1.16, 1.26, 0.43", "mean, log10 nM": "0.95", "empty controls": "1 of 9"}
{"CDR-H1": "GFTFRDYAMH", "CDR-H2": "GISWNSGSIGHADSVK", "CDR-H3": "VGRWGGYFDY", "log10 Kd, replicates": "1.14, 1.34, 0.91", "mean, log10 nM": "1.13", "empty controls": "4 of 9"}
{"CDR-H1": "GFTFDGYAMH", "CDR-H2": "GISTNSGSIGYADSVK", "CDR-H3": "VGRGGGYFDY", "log10 Kd, replicates": "1.38, 1.43, 0.61", "mean, log10 nM": "1.14", "empty controls": "3 of 9"}
{"CDR-H1": "GFTFDDYAMH", "CDR-H2": "GISWNSGSIGYQDSVK", "CDR-H3": "VGRGLGVFDY", "log10 Kd, replicates": "1.13, 1.02, 1.29", "mean, log10 nM": "1.15", "empty controls": "0 of 9"}
{"CDR-H1": "GFIFDDYAMH", "CDR-H2": "GISWNSGSIGYADSVK", "CDR-H3": "VGRGGGFSDY", "log10 Kd, replicates": "1.29, 1.53, 0.95", "mean, log10 nM": "1.26", "empty controls": "0 of 9"}

Nonspecific signal, from three strains lacking the peptide, appeared in 21% of pairings of library AAYL51, centred on 4.54 (5% of these signals below 3.26); values are not corrected for it. The control count says in how many pairings with the empty strains this scFv gave a signal.